Assay results published in US9458184B2, “Compositions of TLR7 and/or TLR8 agonists conjugated to lipids” (CAYLA, priority 2012, dated 2016).
This is a selection: effects in other tests are not listed, and their absence says nothing.

Chains of the proteins cited; added tags and fusions are not shown. Residues count along the entry.
UniProt Q9NYK1, 27-1049 limits assumed: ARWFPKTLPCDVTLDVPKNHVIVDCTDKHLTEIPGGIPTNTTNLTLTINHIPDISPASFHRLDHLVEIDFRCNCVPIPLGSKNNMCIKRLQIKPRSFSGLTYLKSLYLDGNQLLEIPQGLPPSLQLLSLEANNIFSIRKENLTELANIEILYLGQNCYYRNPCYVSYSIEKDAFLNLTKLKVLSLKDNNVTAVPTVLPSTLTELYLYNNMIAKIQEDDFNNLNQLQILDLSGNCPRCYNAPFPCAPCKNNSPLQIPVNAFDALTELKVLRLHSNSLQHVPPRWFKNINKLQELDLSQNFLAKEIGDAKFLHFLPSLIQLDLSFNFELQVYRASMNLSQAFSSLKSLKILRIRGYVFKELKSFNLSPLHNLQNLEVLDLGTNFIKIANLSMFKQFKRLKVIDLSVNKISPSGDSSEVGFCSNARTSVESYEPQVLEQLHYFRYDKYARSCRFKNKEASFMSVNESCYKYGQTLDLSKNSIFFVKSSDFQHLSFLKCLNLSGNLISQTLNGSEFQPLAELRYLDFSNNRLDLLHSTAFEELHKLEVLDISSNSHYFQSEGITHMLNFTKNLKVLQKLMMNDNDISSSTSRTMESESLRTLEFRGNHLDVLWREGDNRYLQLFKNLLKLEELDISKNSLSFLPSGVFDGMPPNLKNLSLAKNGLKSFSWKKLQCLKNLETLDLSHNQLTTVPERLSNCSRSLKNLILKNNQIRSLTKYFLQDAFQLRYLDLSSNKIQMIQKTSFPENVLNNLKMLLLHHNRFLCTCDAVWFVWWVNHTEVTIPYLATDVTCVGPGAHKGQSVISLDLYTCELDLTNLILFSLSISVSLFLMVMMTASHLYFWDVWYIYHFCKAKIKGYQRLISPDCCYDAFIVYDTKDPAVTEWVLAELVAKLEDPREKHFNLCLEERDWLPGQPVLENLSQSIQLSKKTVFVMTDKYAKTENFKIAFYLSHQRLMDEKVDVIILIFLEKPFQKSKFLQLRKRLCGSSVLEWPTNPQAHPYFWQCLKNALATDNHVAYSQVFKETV

Molecular target: human TLR7 (Homo sapiens, UniProt Q9NYK1)
Experiment: HEK-Blue hTLR7 NF-κB/AP-1 SEAP reporter cell assay
Details: molecules alone, 1 or 10 μg/ml, 24 h, HEK-Blue TLR7 cells (FIG. 1A: hTLR7 and mTLR7); specificity checked against other TLR reporter lines

Substance: di(Z)-octadec-9-enyl 1-(4-((6-amino-2-(butylamino)-8-hydroxy-9H-purin-9-yl)methyl) phenyl)-1,4-dioxo-2,5,9,14,18-pentaazahenicosan-21-ylphosphonate
- TLR7 activity (NF-κB/AP-1-inducible SEAP reporter): strong and specific TLR7 activity
